Literature values in patent US8148404B2, “Modulators of CB1 receptors” (7TM Pharma A/S, priority 2006, dated 2012).

Amino acid sequences for entries named in this document (tags omitted).
UniProt P47746, whole entry: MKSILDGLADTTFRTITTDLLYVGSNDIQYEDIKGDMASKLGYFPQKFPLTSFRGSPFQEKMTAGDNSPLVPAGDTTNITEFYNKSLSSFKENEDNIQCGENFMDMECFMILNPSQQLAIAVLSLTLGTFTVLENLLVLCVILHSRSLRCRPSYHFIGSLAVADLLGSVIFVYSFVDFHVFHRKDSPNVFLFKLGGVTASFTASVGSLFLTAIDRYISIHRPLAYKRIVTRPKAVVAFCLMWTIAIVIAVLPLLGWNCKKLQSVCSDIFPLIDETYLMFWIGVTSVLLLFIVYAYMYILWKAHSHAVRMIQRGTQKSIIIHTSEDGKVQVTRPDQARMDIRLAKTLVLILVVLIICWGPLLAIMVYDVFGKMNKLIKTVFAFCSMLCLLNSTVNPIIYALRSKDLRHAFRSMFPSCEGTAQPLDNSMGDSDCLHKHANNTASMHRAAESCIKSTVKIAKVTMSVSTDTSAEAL

Target: CB1 (cannabinoid receptor 1) (Mus musculus, UniProt P47746)
Conditions: mice, charcoal transit, R-(+)-WIN 55,212 challenge; cited from earlier work

Cc1c(C(=O)NN2CCCCC2)nn(-c2ccc(Cl)cc2Cl)c1-c1ccc(Cl)cc1 [Rimonabant]
effect on gastrointestinal transit in the model: clear dose dependent effect
